From patent publication US20240009173A1, “Use of 5-HT3-Targeting Drugs for Treatment of Acute Kidney Injury” (priority 2020, published 2024)

Experiments:
AKI patients in ICU [1] = test system: AKI patients in ICU; parameters: species or system human; conditions: in vivo
AKI patients in ICU [2] = assay: Logistic regression of in-ICU mortality of AKI patients (Example 2, Table 8); conditions: human, in vivo
AKI patients in ICU [3] = conditions: slope of serum creatinine changes

Molecule: Heparin
- Coefficient (AKI patients in ICU [1]): −0.322
- Hazard Ratio (HR) (AKI patients in ICU [1]): 0.725

Molecule: NNc1nncc2ccccc12 [Hydralazine]
- Estimate (regression coefficient) (AKI patients in ICU [2]): −0.323
- Coefficient (AKI patients in ICU [1]): −0.283
- Hazard Ratio (HR) (AKI patients in ICU [1]): 0.753

Molecule: Cc1nccn1CC1CCc2c(c3ccccc3n2C)C1=O (centres unmarked) [Ondansetron]
- Coefficient (AKI patients in ICU [1]): −0.190
- Hazard Ratio (HR) (AKI patients in ICU [1]): 0.827

Molecule: COc1ccc2c3c1O[C@H]1C(=O)CC[C@@]4(O)[C@@H](C2)N(C)CC[C@]314 [Oxycodone]
- Estimate (regression coefficient) (AKI patients in ICU [2]): −1.070
- Coefficient (AKI patients in ICU [1]): −0.595
- Hazard Ratio (HR) (AKI patients in ICU [1]): 0.551

Molecule: CCCCc1oc2ccccc2c1C(=O)c1cc(I)c(OCCN(CC)CC)c(I)c1 [Amiodarone]
- Coefficient (AKI patients in ICU [1]): 0.245
- Hazard Ratio (HR) (AKI patients in ICU [1]): 1.28

Molecule: COCCc1ccc(OCC(O)CNC(C)C)cc1 (centres unmarked) [Metoprolol]
- Estimate (regression coefficient) (AKI patients in ICU [2]): −0.454
- Coefficient (AKI patients in ICU [1]): −0.297
- Hazard Ratio (HR) (AKI patients in ICU [1]): 0.743

Molecule: C[C@@H](O)[C@H]1C(=O)N2C(C(=O)O)=C(S[C@@H]3CN[C@H](C(=O)N(C)C)C3)[C@H](C)[C@H]12 [Meropenem]
- Coefficient (AKI patients in ICU [1]): −0.329
- Hazard Ratio (HR) (AKI patients in ICU [1]): 0.720

Molecule: O=[N+]([O-])OCC(CO[N+](=O)[O-])O[N+](=O)[O-] [Nitroglycerin]
- Coefficient (AKI patients in ICU [1]): 0.190
- Hazard Ratio (HR) (AKI patients in ICU [1]): 1.21

Molecule: O=C(CCCN1CCC(O)(c2ccc(Cl)cc2)CC1)c1ccc(F)cc1 [Haloperidol]
- Estimate (regression coefficient) (AKI patients in ICU [2]): −0.553
- Coefficient (AKI patients in ICU [1]): −0.426
- Hazard Ratio (HR) (AKI patients in ICU [1]): 0.653

Molecule: O=S(=O)([O-])[O-].[Mg+2] [Magnesium Sulfate]
- time of maximum capability of decreasing creatinine level after administration (AKI patients in ICU [3]): 6 to 7 h
- Coefficient (AKI patients in ICU [1]): −0.445
- Hazard Ratio (HR) (AKI patients in ICU [1]): 0.641

Molecule: CCN1CCN(C(=O)N[C@@H](C(=O)N[C@@H]2C(=O)N3[C@@H]2SC(C)(C)[C@@H]3C(=O)O)c2ccccc2)C(=O)C1=O [Piperacillin]
- Coefficient (AKI patients in ICU [1]): −0.183
- Hazard Ratio (HR) (AKI patients in ICU [1]): 0.833

Molecule: CC1=C(C/C=C(\C)CCC[C@H](C)CCC[C@H](C)CCCC(C)C)C(=O)c2ccccc2C1=O [Phytonadione]
- Coefficient (AKI patients in ICU [1]): −0.186
- Hazard Ratio (HR) (AKI patients in ICU [1]): 0.830

Molecule: CC(C)c1cccc(C(C)C)c1O [Propofol]
- Coefficient (AKI patients in ICU [1]): −0.234
- Hazard Ratio (HR) (AKI patients in ICU [1]): 0.791

Molecule: C[C@H](CS)C(=O)N1CCC[C@H]1C(=O)O [Captopril]
- Coefficient (AKI patients in ICU [1]): −0.481
- Hazard Ratio (HR) (AKI patients in ICU [1]): 0.618

Molecule: CCN(CC)CCNC(=O)c1cc(Cl)c(N)cc1OC [Metoclopramide]
- Coefficient (AKI patients in ICU [1]): −0.403
- Hazard Ratio (HR) (AKI patients in ICU [1]): 0.668

Molecule: OC(Cn1cncn1)(Cn1cncn1)c1ccc(F)cc1F [Fluconazole]
- Coefficient (AKI patients in ICU [1]): −0.601
- Hazard Ratio (HR) (AKI patients in ICU [1]): 0.548

Molecule: CC(=O)Nc1ccc(O)cc1 [Acetaminophen]
- Estimate (regression coefficient) (AKI patients in ICU [2]): −0.332
- Coefficient (AKI patients in ICU [1]): −0.191

Molecule: NC[C@H](O)c1ccc(O)c(O)c1 [Norepinephrine]
- Coefficient (AKI patients in ICU [1]): 0.566
- Hazard Ratio (HR) (AKI patients in ICU [1]): 1.76

Molecule: NS(=O)(=O)c1cc(C(=O)O)c(NCc2ccco2)cc1Cl [Furosemide]
- Estimate (regression coefficient) (AKI patients in ICU [2]): −0.359
- Coefficient (AKI patients in ICU [1]): −0.413
- Hazard Ratio (HR) (AKI patients in ICU [1]): 0.662

Molecule: CN1CC[C@]23c4c5ccc(O)c4O[C@H]2[C@@H](O)C=C[C@H]3[C@H]1C5 [Morphine]
- Coefficient (AKI patients in ICU [1]): 1.02
- Hazard Ratio (HR) (AKI patients in ICU [1]): 2.76

Molecule: CC(=O)CC(c1ccccc1)c1c(O)c2ccccc2oc1=O (centres unmarked) [Warfarin]
- Coefficient (AKI patients in ICU [1]): −1.03
- Hazard Ratio (HR) (AKI patients in ICU [1]): 0.357

Molecule: NCCCC[C@H](N[C@@H](CCc1ccccc1)C(=O)O)C(=O)N1CCC[C@H]1C(=O)O [Lisinopril]
- Estimate (regression coefficient) (AKI patients in ICU [2]): −0.857
- Coefficient (AKI patients in ICU [1]): −0.596
- Hazard Ratio (HR) (AKI patients in ICU [1]): 0.551

Molecule: OC[C@H]1O[C@@H](O[C@@H]2[C@@H](CO)OC(O)(CO)[C@H]2O)[C@H](O)[C@@H](O)[C@H]1O (mixture of isomers) [Lactulose]
- Coefficient (AKI patients in ICU [1]): −0.198
- Hazard Ratio (HR) (AKI patients in ICU [1]): 0.820
